The values that follow are results of earlier work, collected in PMC6408977 (Journal of controlled release : official journal of the …, 2019).

For this data set the following is noted: read-out: KD of HSA to DMPC lipid vesicles; cited from earlier work.

One may read the Kd as the equilibrium constant for the complex coming apart. With HSA: human serum albumin, the Kd is 6.7 mM.
